Literature values, collected in US9175000B2, “Buprenorphine analogs” (dated 2015).

Chains of the proteins cited; added tags and fusions are not shown. Lines headed by an entry give the natural chain unless they say otherwise; changes in a name come on top.
UniProt P41146: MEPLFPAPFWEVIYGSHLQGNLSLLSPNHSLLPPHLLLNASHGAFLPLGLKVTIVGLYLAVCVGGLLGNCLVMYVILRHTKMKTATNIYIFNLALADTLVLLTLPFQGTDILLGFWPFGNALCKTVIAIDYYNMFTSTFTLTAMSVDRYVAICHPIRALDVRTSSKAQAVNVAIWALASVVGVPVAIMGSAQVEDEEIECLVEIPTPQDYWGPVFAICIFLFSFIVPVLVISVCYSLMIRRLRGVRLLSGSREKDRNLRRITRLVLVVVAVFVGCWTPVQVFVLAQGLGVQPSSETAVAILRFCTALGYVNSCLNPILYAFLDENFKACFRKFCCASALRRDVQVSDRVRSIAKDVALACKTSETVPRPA

Target: ORL-1 (Homo sapiens (Human), UniProt P41146)
Details: read-out: IC50 at ORL-1; at least partial agonists for ORL-1; Wnendt et al. 1999

Question: Which IC50 does the source give for 7-benzylidenenaltrexone here?
Answer: 10 µM
